Literature values in US20090264855A1.

Settings: simple diffusion, citrate buffer at pH 5; cited from earlier work

CCC(=O)N(c1ccccc1)C1(COC)CCN(CCc2cccs2)CC1
plasma concentration: did not produce any detectable plasma concentration

This is a selection: effects in other tests are not listed, and their absence says nothing.
